Results from ChEMBL document CHEMBL5150067 (J Med Chem, 2022).
Activity calls are given as the source filed them. The rule behind the calls is not given here.

Key:
Assay type in all cases: functional, cell-based
C3H 10T1/2 [1] = assay: Inhibition of Hedgehog-signalling dependent purmorphamine induced osteoblast differentiation in mouse C3H 10T1/2 cells assessed as reduction in ALP expression at 0.01 to 100 uM incubated for 96 hrs by CDP-Star luminogenic substrate based assay; details: dose 0.01-100 µM
C3H 10T1/2 [2] = assay: Inhibition of AhR mRNA expression in purmorphamine treated mouse C3H 10T1/2 cells at 1 uM incubated for 48 to 96 hrs by RT-qPCR analysis; details: time 48-96 hrs
C3H 10T1/2 [3] = assay: Downregulation of purmorphamine-induced Ptch2 mRNA expression in mouse C3H 10T1/2 cells at 1 uM measured after 48 hrs by RT-qPCR analysis

Compound | inhibition (C3H 10T1/2 [1]) | inhibition (C3H 10T1/2 [2]) | Activity (C3H 10T1/2 [3])
Cc1ccccc1/N=N/c1ccc(NC(=O)c2ccnn2C)c(C)c1 | Active | – | –
Cc1csc(NC(=O)C(C(=O)OC(C)C)=C2SCS2)n1 | Active | – | –
CS(=O)(=O)c1ccc(C(=O)Nc2ccc(Cl)c(-c3ccccn3)c2)c(Cl)c1 | – | Active | –
Clc1cc2c(cc1Cl)Oc1cc(Cl)c(Cl)cc1O2 | Active | – | –
O=Cc1c2[nH]c3ccccc3c2cc2[nH]c3ccccc3c12 | Active | – | Active
c1ccc2c(c1)cc1ccc3cccc4ccc2c1c34 | Active | – | –
CC(C)c1c(O)cc(/C=C/c2ccccc2)cc1O | Active | – | –
